This test deals with Human PD-1 on T cells from healthy blood donors (human) (UniProt Q15116). Description: cell-based or functional assay.

Protein sequences, listed by entry. Tags and fused reporters are not part of them. Residues count along the entry.
UniProt Q15116, 25-288 limits assumed: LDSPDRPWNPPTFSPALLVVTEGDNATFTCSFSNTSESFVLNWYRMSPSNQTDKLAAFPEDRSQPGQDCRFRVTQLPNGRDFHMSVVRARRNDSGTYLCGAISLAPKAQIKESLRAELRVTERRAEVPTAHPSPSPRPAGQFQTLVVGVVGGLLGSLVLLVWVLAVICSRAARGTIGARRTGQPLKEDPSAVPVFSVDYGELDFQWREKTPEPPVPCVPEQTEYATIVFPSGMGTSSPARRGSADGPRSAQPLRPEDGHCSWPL

The substance “Human PD-L1 Isoform 5 (Soluble 1), recombinant, C-terminal HA tag (from UniProt Q9NZQ7 19-227) (ligand)” showed a reduction in T cell viability (propidium iodide exclusion, flow cytometry) of 10 to 20%.
The result for “Human PD-L1 Isoform 6 (Soluble 2), recombinant, C-terminal HA tag (from UniProt Q9NZQ7 19-227) (ligand)” reads 10 to 20%.

For the origin of these results see patent US20200095644A1.
